Source: PubChem BioAssay AID504326 (The Scripps Research Institute Molecular Screening Center, 2011)
This is a selection; strong and weak results do not stand in their true shares. The source made the active and inactive calls. Rule as the data show it: active = activation above about 18%; inactive = the rest.

Protein sequences, listed by entry. Tags and fused reporters are not part of them.
UniProt P35372, whole entry, looked up: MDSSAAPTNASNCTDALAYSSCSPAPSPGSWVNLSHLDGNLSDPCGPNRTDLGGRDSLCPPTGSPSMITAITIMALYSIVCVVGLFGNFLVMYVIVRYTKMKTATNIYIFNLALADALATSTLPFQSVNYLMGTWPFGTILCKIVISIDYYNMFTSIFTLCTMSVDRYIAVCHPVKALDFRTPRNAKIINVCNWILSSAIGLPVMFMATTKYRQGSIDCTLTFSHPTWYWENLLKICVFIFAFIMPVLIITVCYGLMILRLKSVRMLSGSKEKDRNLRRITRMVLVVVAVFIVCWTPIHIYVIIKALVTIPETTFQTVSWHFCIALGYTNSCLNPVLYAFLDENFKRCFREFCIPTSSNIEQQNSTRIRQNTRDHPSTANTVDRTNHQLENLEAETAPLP
UniProt P41143, whole entry, looked up: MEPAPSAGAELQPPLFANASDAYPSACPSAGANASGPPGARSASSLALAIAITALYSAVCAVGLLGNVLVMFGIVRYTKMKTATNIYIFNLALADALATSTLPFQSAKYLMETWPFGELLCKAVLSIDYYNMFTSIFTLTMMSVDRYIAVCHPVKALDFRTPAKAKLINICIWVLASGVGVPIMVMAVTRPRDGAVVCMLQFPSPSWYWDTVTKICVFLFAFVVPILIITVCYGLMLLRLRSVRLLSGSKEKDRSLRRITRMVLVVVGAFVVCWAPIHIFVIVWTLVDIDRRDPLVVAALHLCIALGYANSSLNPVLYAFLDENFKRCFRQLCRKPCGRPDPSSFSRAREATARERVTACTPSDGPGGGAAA

The compounds below were run against Mu-type opioid receptor (Homo sapiens) + Delta-type opioid receptor (Homo sapiens) (UniProt P35372+P41143) (assay: agonists of OPRM1-OPRD1 heterodimerization, primary screen, cell-based, luminescence (AID 504326;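 also: 0% = vehicle-treated cells and 100% = reference agonist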)). Details: cells, at 9.3 µM, active compounds read high.
For `COc1ccc(-c2csc(NCCn3c(C)nc4cc(C(F)(F)F)ccc43)n2)cc1`, the activation was inactive: -1.05%. With `O=C(Cn1c(-c2cncs2)nc2ccccc21)NC1CCCC1` the activation was inactive: -3.1%. With `O=[As](O)(O)c1cccnc1` the activation was inactive: -1.89%. With `Cn1c(=O)c2c(ncn2CC(=O)N2CCCCCC2)n(C)c1=O` the activation was inactive: -1.42%. `O=C(Cn1cnc2ccccc21)N/N=C/c1cccnc1` was tested, and the activation was inactive: -2.71%. With `CN(C)C(=O)Cn1c(=O)n(C)c2ccccc21` the activation was inactive: -0.75%. For `CC(C)C(NS(=O)(=O)c1cccc2nsnc12)C(=O)N1CCn2c1nc1ccccc12` (configuration not stated), the activation was inactive: -3.28%. `CCC(C)N(C(=O)Cn1cnc2c1c(=O)n(C)c(=O)n2C)C1CCS(=O)(=O)C1` (configuration not stated) was tested, and the activation was inactive: -0.11%. For `Cc1nc2cc(C(F)(F)F)ccc2n1CCNc1nc(-c2ccc([N+](=O)[O-])c(Cl)c2)cs1`, the activation was inactive: 4.79%. With `OCCNc1nc2ccccc2n1CCN1CCCCC1` the activation was inactive: -4.27%. In the case of `Cc1nc2ccccc2n1CC(=O)NCCN1CCOCC1`, the activation is reported as inactive: -1.64%. For `C(=N\c1nc2ccccc2n1CCN1CCOCC1)/c1cccs1`, the activation was inactive: -0.85%. `COCCCNC(=O)Cn1cnc2c(NCc3ccccc3)ncnc21` was tested, and the activation was inactive: -1.98%. `Cn1c(=O)c2c(ncn2CC(=O)Nc2cccc(S(=O)(=O)Nc3ccccc3F)c2)n(C)c1=O` was tested, and the activation was inactive: -3.18%. For `CS(=O)(=O)c1ccc(Cl)c(NC(=O)COC(=O)C(O)(c2ccccc2)c2ccccc2)c1`, the activation was inactive: -0.41%. For `CN1CCN(C(=O)Cn2c(C(F)(F)F)nc3ccccc32)CC1`, the activation was inactive: -0.23%. For `c1ccc(Cn2c(CNc3nc4ccccc4n3CCN3CCCCC3)nc3ccccc32)cc1`, the activation was inactive: 7.69%. With `O=C(OC1CN2CCC1CC2)c1ccc(Cl)cc1` (configuration not stated) the activation was inactive: -1.56%. With `O=C(c1ccccc1)N1CCn2c1nc1ccccc12` the activation was inactive: -2.18%. `Cn1cccc1/C=N/NC(=O)Cn1cnc2ccccc21` was tested, and the activation was inactive: -1.95%. `CC(C(=O)N1CCc2ccccc21)n1cnc2c1c(=O)n(C)c(=O)n2C` (configuration not stated) was tested, and the activation was inactive: 2.24%. For `C[C@H](NC(=O)N1CCn2c1nc1ccccc12)C(=O)NCC1CCCO1` (some centres not stated), the activation was inactive: -3.38%. In the case of `CCC(=O)Nc1ccc(NC(=S)NC(=O)/C=C/c2ccco2)cc1`, the activation is reported as inactive: -2.43%. `CCN(CC)CCn1cnc2c1c(=O)[nH]c(=O)n2Cc1ccccc1` was tested, and the activation was inactive: -1.72%. `Cc1ccc(S(=O)(=O)c2nnn3c2nc(NC2CCN(Cc4ccccc4)CC2)c2ccccc23)cc1C` was tested, and the activation was active: 22.8%. With `CN1CCC(N(C)c2nc(-c3ccccc3)nc3ccccc23)CC1` the activation was inactive: 6.7%. With `CC1CN(C(=O)Cn2c(C(F)(F)F)nc3ccccc32)CC(C)O1` (configuration not stated) the activation was inactive: 0.98%. For `O=C(CCCCCNC(=O)N1CCn2c1nc1ccccc12)N[C@H](Cc1ccccc1)C(=O)O`, the activation was inactive: -3.27%. With `CC(CNC(=O)Cn1cnc2c(OCc3ccccc3)ncnc21)c1ccccc1` (configuration not stated) the activation was inactive: -3.49%. `CC(C)CN(C(=O)Cn1c(C(F)(F)F)nc2ccccc21)c1c(N)n(Cc2ccccc2)c(=O)[nH]c1=O` was tested, and the activation was inactive: -1.14%. `COCCN(C(=O)Cn1c(C(F)(F)F)nc2ccccc21)c1c(N)n(Cc2ccccc2)c(=O)[nH]c1=O` was tested, and the activation was inactive: -0.4%. `Brc1ccc(/C=N/c2nc3ccccc3n2CCN2CCOCC2)cc1` was tested, and the activation was inactive: -0.71%. `c1coc(CNc2nc3ccccc3n2CCN2CCOCC2)c1` was tested, and the activation was inactive: 0.62%. For `O=C(Cn1cnc2c(OCc3ccccc3)ncnc21)NCCc1c[nH]c2ccccc12`, the activation was inactive: -0.68%. In the case of `Fc1ccc(Cn2nnnc2CN2CCC(n3nnc4cc(C(F)(F)F)ccc43)CC2)cc1`, the activation is reported as inactive: 0.16%. With `CN(C)CCCNC(=S)N1CCn2c(nc3ccccc32)C1` the activation was inactive: -2.83%. `CC1(CBr)Cn2c(nc3ccccc3c2=O)S1` (configuration not stated) was tested, and the activation was inactive: -1.87%. For `CCC(=O)Nc1ccc2c(c1)nc1n2CCN(C2CCCCC2)C1`, the activation was inactive: 0.71%. `O=C(Nc1nc2ccccc2n1CCN1CCOCC1)c1ccc(COc2ccccc2Br)o1` was tested, and the activation was inactive: 0.67%. In the case of `CN(C(=O)Cc1ccc(Cl)c(Cl)c1)[C@@H]1CCCC[C@H]1N1CCCC1`, the activation is reported as inactive: 1%. For `CC(C)/C=N\N=C(\N)N[N+](=O)[O-]`, the activation was inactive: 0.24%. For `COc1ccc(CCNC(=O)CCCCCNC(=O)N2CCn3c2nc2ccccc23)cc1OC`, the activation was inactive: -3.69%. With `O=C(Cn1c(COc2ccc(Cl)cc2)nc2ccccc21)NCC(F)(F)F` the activation was inactive: -2.59%. With `C[C@H](O)[C@@H]1C(=O)N2CCc3ccc(-c4cccc(F)c4)cc3[C@@H]2C[C@@H]1N(C)C(=O)C(C)(C)C` the activation was inactive: 1.18%. `CCN(CC)CCn1c(NC(=O)c2ccc(C)cc2)nc2ccccc21` was tested, and the activation was inactive: 2.47%. In the case of `O=C(Cn1c(CO)nc2ccccc21)NCc1ccc2c(c1)OCO2`, the activation is reported as inactive: -0.4%. `Cc1cccc(N2CCN(C(=O)Cn3cnc4c3c(=O)n(C)c(=O)n4C)CC2)c1C` was tested, and the activation was inactive: -2.12%. In the case of `COC(=O)[C@H](CCSC)NC(=O)Cn1cnc2c(OCc3ccccc3)ncnc21`, the activation is reported as inactive: -0.5%. For `COc1ccccc1CNC(=O)COC(=O)C(O)(c1ccccc1)c1ccccc1`, the activation was inactive: -1.83%. In the case of `Cn1c(=O)c2c(nc(N3CCCCC3)n2CCNC2=NCCC2)n(C)c1=O`, the activation is reported as inactive: -3.02%. For `Cc1ccc(NC(=O)C2CC(=O)Nc3nc4ccccc4n32)c(C)c1` (configuration not stated), the activation was inactive: -1.32%. For `O=C(CCNC(=O)N1CCn2c1nc1ccccc12)NCc1ccccc1`, the activation was inactive: -2.51%. `COc1ccc(N(C(=O)Cn2cnc3ccccc32)C(C(=O)NC2CCCCC2)c2ccccc2)cc1` (configuration not stated) was tested, and the activation was inactive: -1.58%. For `Cc1ccc2c(c1)C1CN(C)CCC1N2C(=O)c1cccc(S(=O)(=O)N2CC(C)CC(C)C2)c1` (configuration not stated), the activation was inactive: 1.8%. For `CCN(CC)c1ccc(CNc2nc3ccccc3n2CCN2CCCCC2)cc1`, the activation was active: 42.2%. With `Cn1c(=O)c2ncn(CC(=O)N/N=C/C=C/c3ccccc3)c2n(C)c1=O` the activation was inactive: -2.59%. With `COc1ccccc1C(=O)Nc1ccc2c(c1)nc1n2CCN(Cc2ccccc2)C1` the activation was inactive: 1.5%.
